The test system of this assay is anti-MBP purified from CSF of MS patients. The experiment in a line: In vitro neutralization of purified anti-MBP (liquid phase assay, then solid phase radioimmunoassay). The format is binding, human. The following applies: negative antigen controls, concentrations as high as 1000 ng. The text has this: Purified MBP was coupled to CNBr-activated Sepharose 4B (Pharmacia™) according to the manufacturer's instructions. Purified CSF IgG containing increased anti-MBP levels from 35 patients with acute MS relapses was used to isolate anti-MBP by MBP-Sepharose affinity chromatography (Warren, K. G. and Catz, I., J Neurol Sci 103:90-96, 1991). Purified anti-MBP samples were compared with the initial IgG source by poly-acrylamide gel electrophoresis. When purified anti-MBP samples were absorbed to zero with MBP, the post-absorption supernatants contained no residual IgG indicating the purity of anti-MBP.
Constant amounts of anti-MBP (15 radioactivity binding units corresponding to 100 for scale expansion purposes=% 0) were incubated with increasing amounts of h-MBP (0-1000 ng) or individual peptides of MBP (0-10,000 ng) in a liquid phase assay and after 1.5 hours incubation, free anti-MBP levels were determined in all mixtures. […]
Anti-MBP levels were determined by a solid phase radioimmunoassay with human MBP (Warren, K. G. and Catz, I., Ann Neurol 209:20-25, 1986; Warren, K. G. and Catz, I., Ann Neurol 21:183-187, 1987; and Warren, K. G. and Catz, I., J Neurol Sci 91:143-151, 1989). Free anti-MBP levels were measured in all fractions from affinity chromatography and in all neutralization mixtures. […]

Turning to “human serum albumin: negative antigen control [reference compound]”, the “reaction with purified anti-MBP” value is recorded as “did not react”.

For the origin of these results see patent US7368429B2, “Peptide specificity of anti-myelin basic protein and the administration of myelin basic protein peptides to multiple sclerosis patients” (The Governors of the University of Alberta, priority 1991, dated 2008).
